The test addresses PAI-1 (plasminogen activator inhibitor-1) (Homo sapiens, UniProt P05121). The test can be described thus: biochemical. More on the design: gene SERPINE1.

The chains behind the UniProt entries cited, without tags or fusion partners. Residues count along the entry.
UniProt P05121, 24-402: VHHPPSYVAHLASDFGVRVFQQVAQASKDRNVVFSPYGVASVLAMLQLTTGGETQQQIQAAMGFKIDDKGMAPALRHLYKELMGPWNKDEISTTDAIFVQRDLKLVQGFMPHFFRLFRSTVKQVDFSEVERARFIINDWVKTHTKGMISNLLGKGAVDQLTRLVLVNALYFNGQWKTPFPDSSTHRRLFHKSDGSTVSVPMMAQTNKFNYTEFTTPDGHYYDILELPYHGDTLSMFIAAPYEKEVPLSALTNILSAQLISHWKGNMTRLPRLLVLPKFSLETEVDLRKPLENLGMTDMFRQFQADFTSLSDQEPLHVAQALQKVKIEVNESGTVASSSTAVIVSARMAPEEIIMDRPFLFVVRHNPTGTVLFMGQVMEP

The values below come from paper PMC6779874, “ACT001, a novel PAI-1 inhibitor, exerts synergistic effects in combination with cisplatin by inhibiting PI3K/AKT pathway in glioma” (Cell Death & Disease, 2019).

SMILES strings stand for the structures.

In general, Kd refers to the free concentration of one partner at which half of the binding sites on the other are occupied at equilibrium, for simple one-to-one binding. Read a high Kd as weaker binding. Turning to `O=C(O)C(=O)c1cn(Cc2ccccc2)c2ccc(-c3ccc(OC(F)(F)F)cc3)cc12` [PAI-039], binding was put at a Kd of 4.51 µM.
